## Antibody variant affinities, Ab-14 heavy chain, assay B

Data: MIT Lincoln Laboratory AlphaSeq set, Li et al. 2023, doi:10.1038/s41467-023-39022-2, as distributed in FLAb.

Binding partner: SARS-CoV-2 spike HR2 peptide, sequence PDVDLGDISGINAS.

Parent scFv Ab-14: VH joined to VL by three GGGGS repeats. Changes lie in the heavy chain CDRs alone.
VH: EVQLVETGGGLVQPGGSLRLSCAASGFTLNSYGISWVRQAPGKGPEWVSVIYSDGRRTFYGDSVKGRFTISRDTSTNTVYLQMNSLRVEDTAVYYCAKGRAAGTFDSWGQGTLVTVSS
VL: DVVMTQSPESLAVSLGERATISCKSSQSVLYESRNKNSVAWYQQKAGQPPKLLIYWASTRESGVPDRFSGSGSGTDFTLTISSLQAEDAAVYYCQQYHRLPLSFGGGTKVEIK

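Phage display of a naive human antibody library on the peptide gave the parent. Designed CDR sequences, proposed from the first random library and measured here. Several design methods are mixed in this list. AlphaSeq pools MATa yeast showing the antibodies with MATalpha yeast showing the peptide. After mating in shaken culture at 30 °C for 16 h, diploids were selected and their barcode pairs sequenced. A regression on co-assayed BCL2-family reference pairs converts the normalised counts of each replicate to an apparent Kd. There are six technical replicates.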

Each variant is given by its three heavy chain CDRs, as the data file delimits them; those of the parent are GFTLNSYGIS, VIYSDGRRTFYGDSVK, GRAAGTFDS. Scale: log10 of Kd in nM, estimated from mating counts; low values are strong binders. Averages over replicates are reported, and they cover detected replicates only. "n.d." means that the variant was in the library but no mating with the target was seen in that replicate; the authors take this as a sign of poor binding, and no number exists. Of ten entries with the parent sequence, four were seen in most replicates (averages 0.34 to 2.37), three in one and three in none, so single entries are noisy. Empty control strains, which show no peptide, gave a signal in 1% of pairings with all heavy chain designs; the median was 2.08 and 95% of these signals were weaker than 0.84. No background was subtracted. A sequence measured in both rounds can read differently, since the two assays cover different ranges. The authors averaged sequences with at least three values out of six and counted those with two or fewer as poor binders.

log10 Kd (nM) by replicate | mean log10 Kd (nM) | CDR-H1 | CDR-H2 | CDR-H3
n.d. n.d. n.d. n.d. n.d. n.d. | n.d. | GYNIDEYGIS | VIYADGQRTAYQNAVK | GEQAGIMMY
n.d. n.d. 1.65 n.d. n.d. n.d. | 1.65 | GFVLNDYGIS | VLYSDGRRTFYGDSVK | GRAALDFIS
0.68 0.89 1.63 0.94 0.67 1.19 | 1.00 | GFNLNSYGIS | VIYSDGRRTFYKDSVK | GRTAGTFDQ
0.73 0.62 0.34 0.58 0.71 0.35 | 0.55 | GFSLNSYGIS | VIYSDGRRTFYGDSVK | GEAAGTFDL
n.d. n.d. n.d. n.d. n.d. n.d. | n.d. | GFNLNSYGIS | VIYSDGRRTFYADSVK | GHEAGTFDS
-0.18 -0.21 -0.24 -0.41 -0.62 -0.38 | -0.34 | GFDLNEYGIS | VIYADGMRTSYIDSVK | GNAAGTFDS
n.d. n.d. n.d. n.d. n.d. n.d. | n.d. | GFTLNSYGIS | VIYSDGRRCFYGDSVK | GGAASTFDS
0.37 -0.69 -0.51 -0.85 1.04 0.04 | -0.10 | GFNLNEYGIS | VIYADGRRTFYTDSVK | GTNAGTFDM
-0.63 -0.53 -0.34 0.24 -0.53 -0.38 | -0.36 | GFNLNEYGIS | VIYADGMRTFYTDSVK | GETAGTFDI
0.84 0.72 0.39 0.23 0.84 1.03 | 0.67 | GFELNSYGIS | VIYSDGRRTFYGDSVK | GQAAGTFDT
n.d. n.d. n.d. n.d. n.d. n.d. | n.d. | GDDLENVGIS | VIYADGMRKQYAQNVK | GHTGGTFFD
n.d. n.d. n.d. n.d. n.d. n.d. | n.d. | GFVFDEYGIS | VIYADGKRQFYQDKVK | GENTGNFDT
0.05 0.02 -0.13 -0.19 -0.05 -0.04 | -0.06 | GFSLNSYGIS | VIYSDGRRTFYSDDVK | GRTAGTFDS
0.90 1.45 0.82 n.d. 0.40 n.d. | 0.89 | GFDLNSYGIS | VIYSDGRRTFYGDKVK | GRTAGTFDS
n.d. n.d. n.d. n.d. n.d. n.d. | n.d. | GFELNSYGIS | VIYSDGRRTFYGDAVK | GRAEGTFDS
n.d. n.d. n.d. n.d. n.d. 0.01 | 0.01 | GFTLKSYGIS | VIYADGRRTFYGDSVK | GRAAGTFDI
0.51 0.15 0.29 0.07 0.59 0.52 | 0.36 | GFSLNTYGIS | VIYSDGRRTFYKDSVK | GTAAGTFDS
n.d. 1.76 2.51 n.d. n.d. 1.05 | 1.78 | GFTLNSYGIS | VIYSDGRRTFYDDSVK | GKLAGTFDD
n.d. 0.51 0.81 n.d. 0.73 n.d. | 0.68 | GFALNSYGIS | VIYSDGRRTFYIDSVK | GQLAGTFDS
n.d. n.d. n.d. n.d. n.d. n.d. | n.d. | GFQIDEYGIS | VIYADGQRSAYTENVK | GQHGGMTVA
-0.09 -0.01 0.07 -0.19 -0.20 0.17 | -0.04 | GFSLNSYGIS | VIYSDGRRTFYDDSVK | GMVAGTFDS
1.12 0.65 1.00 0.90 1.69 0.97 | 1.06 | GFTLNSYGIS | VIYSDGRRTFYGDSVK | GNLAGTFDS
0.25 0.08 -0.04 0.31 -0.06 0.27 | 0.13 | GFDLEDYGIS | VIYADGMRTAYADSVK | GNQAGTFDL
0.05 -0.04 0.26 0.00 -0.35 0.22 | 0.02 | GFTLNEYGIS | VIYSDGRRTFYDDSVK | GRHAGTFDS
n.d. n.d. n.d. n.d. n.d. n.d. | n.d. | GFVLDEYGIS | VIYADGKRQVYQDKVK | GEGTGNFDT
n.d. n.d. n.d. n.d. n.d. n.d. | n.d. | GFTLNEYGIS | VIYSDGRRTFYGDSVK | IEATGTFDS
0.49 0.89 0.42 0.86 0.31 0.12 | 0.51 | GFTLKSYGIS | VIYSDGRRTFYDDSVK | GTLAGTFDS
n.d. n.d. n.d. n.d. n.d. n.d. | n.d. | GKSLDEYGIS | VIYADGMRAEYQNSVK | GTTGGDVFV
-0.04 -0.72 -1.08 -0.98 -1.12 -0.92 | -0.81 | GFDLNEYGIS | VIYADGMRTAYADSVK | GVNAGTFDL
0.08 -0.24 0.04 -0.46 -0.16 0.01 | -0.12 | GFDINEYGIS | VIYADGKRTFYADSVK | GQTAGTFDS
n.d. n.d. n.d. n.d. n.d. n.d. | n.d. | GFDVNEYGIS | VIYADGRRTQYVQSVK | GKNNMVLSV
0.36 0.48 0.17 0.21 0.23 0.26 | 0.29 | GFDLNSYGIS | VIYSDGRRTFYVDSVK | GVAAGTFDS
n.d. n.d. n.d. -0.40 n.d. 0.35 | -0.02 | GFSLNSYGIS | VIYSDGRRTAYQDDVK | GNAAGTFDS
n.d. n.d. n.d. n.d. 2.52 n.d. | 2.52 | GFSLEEYGIS | VIYADGKRDVYADSVK | GHISGWFDI
n.d. n.d. n.d. n.d. n.d. n.d. | n.d. | GFALNQYGIS | VIYYDGRRTFYGCSVK | GRAAGFFDS
-0.65 -0.45 -0.58 -1.04 -0.23 -0.68 | -0.61 | GFDLNEYGIS | VIYADGKRTYYADSVK | GEVAGTFDV
0.26 0.93 1.12 0.18 0.60 1.47 | 0.76 | GFDLNEYGIS | VIYADGRRTAYQDSVK | GQVAGTFDS
n.d. n.d. n.d. n.d. n.d. n.d. | n.d. | GQQLDEYGIH | VIYADGVRTSYTNQVK | GEHAGTFMQ
-0.22 -0.10 -0.27 -0.43 -0.06 -0.13 | -0.20 | GFDLDEYGIS | VIYADGRRTAYADSVK | GQNAGTFDL
2.15 0.92 n.d. 2.06 1.53 1.72 | 1.68 | KFDLNSYGIS | VIYSDGRRTFYLDSVK | GQTAGTFDS
1.63 1.21 1.33 2.12 1.11 1.27 | 1.45 | GHTLNSYGIS | VIYSDGRRTAYGDSVK | GRAAGTFDS
2.20 1.14 1.86 1.06 1.77 1.67 | 1.62 | GFGLNSYGIS | VIYSDGRRTFYQDSVK | GQAAGTFDS
-0.46 -0.80 -0.79 -0.84 -0.70 -0.58 | -0.69 | GFDLNEYGIS | VIYADGRRTFYADSVK | GNTAGTFDS
n.d. n.d. n.d. n.d. n.d. n.d. | n.d. | GFTLDSYGIS | VIYSDGRRTFYGDSVK | GRAAGTFIQ
0.43 0.59 0.14 2.52 0.19 1.16 | 0.84 | GFDLDEYGIS | VIYADGRRTYYADSVK | GNVAGTFDL
0.17 0.58 0.17 0.06 0.66 0.26 | 0.31 | GETLNSYGIS | VIYADGRRTFYGDSVK | GRAAGTFDS
1.02 n.d. -0.11 1.88 0.90 1.70 | 1.08 | MFNLNSYGIS | VIYADGRRTFYGDSVK | GNAAGTFDS

Again, the first 5 entries without any signal:

| CDR-H1 | CDR-H2 | CDR-H3 | log10 Kd (nM) by replicate | mean log10 Kd (nM) |
|---|---|---|---|---|
| GYNIDEYGIS | VIYADGQRTAYQNAVK | GEQAGIMMY | n.d. n.d. n.d. n.d. n.d. n.d. | n.d. |
| GFNLNSYGIS | VIYSDGRRTFYADSVK | GHEAGTFDS | n.d. n.d. n.d. n.d. n.d. n.d. | n.d. |
| GFTLNSYGIS | VIYSDGRRCFYGDSVK | GGAASTFDS | n.d. n.d. n.d. n.d. n.d. n.d. | n.d. |
| GDDLENVGIS | VIYADGMRKQYAQNVK | GHTGGTFFD | n.d. n.d. n.d. n.d. n.d. n.d. | n.d. |
| GFVFDEYGIS | VIYADGKRQFYQDKVK | GENTGNFDT | n.d. n.d. n.d. n.d. n.d. n.d. | n.d. |